Measured values as given in patent publication US5624932A (priority 1995, dated 1997).

Tested on: dorsal root ganglion (DRG) neurons

Structure (SMILES): CC(C)C[C@H](NC(=O)[C@H](Cc1ccccc1)NC(=O)CNC(=O)CNC(=O)[C@@H](N)Cc1ccc(O)cc1)C(=O)O
- Alteration of action potential duration, opioid at low concentration (< nM): Prolongation
- Alteration of action potential duration, opioid at high concentration (μM): Shortening
